Results from ChEMBL document CHEMBL6071188, “Synthesis and In Vivo Profiling of Desymmetrized Antimalarial Trioxolanes with Diverse Carbamate Side Chains” (ACS Med Chem Lett, 2024).

Assay: in vivo
Conditions: rat, po, 17.4 mg/kg

CC(C)(N)CNC(=O)C[C@H]1CC[C@]2(CC1)OO[C@]1(O2)C2CC3CC(C2)CC1C3
half-life: 84 min
